The target of this test is PDPK1 enzyme (Homo sapiens, UniProt O15530). The test is described as follows: PDK1-OMNIA kinase assay (ST28-Sox peptide). The conditions noted are these: read-out: Inhibition/Modification Designation (IC50, PDK1-OMNIA); PDPK1 enzyme pre-incubated 30 min at 25° C. with compound; [ATP]=5 μM; ST28-Sox peptide substrate.

Amino acid sequences for entries named in this document (tags omitted).
UniProt O15530, whole entry: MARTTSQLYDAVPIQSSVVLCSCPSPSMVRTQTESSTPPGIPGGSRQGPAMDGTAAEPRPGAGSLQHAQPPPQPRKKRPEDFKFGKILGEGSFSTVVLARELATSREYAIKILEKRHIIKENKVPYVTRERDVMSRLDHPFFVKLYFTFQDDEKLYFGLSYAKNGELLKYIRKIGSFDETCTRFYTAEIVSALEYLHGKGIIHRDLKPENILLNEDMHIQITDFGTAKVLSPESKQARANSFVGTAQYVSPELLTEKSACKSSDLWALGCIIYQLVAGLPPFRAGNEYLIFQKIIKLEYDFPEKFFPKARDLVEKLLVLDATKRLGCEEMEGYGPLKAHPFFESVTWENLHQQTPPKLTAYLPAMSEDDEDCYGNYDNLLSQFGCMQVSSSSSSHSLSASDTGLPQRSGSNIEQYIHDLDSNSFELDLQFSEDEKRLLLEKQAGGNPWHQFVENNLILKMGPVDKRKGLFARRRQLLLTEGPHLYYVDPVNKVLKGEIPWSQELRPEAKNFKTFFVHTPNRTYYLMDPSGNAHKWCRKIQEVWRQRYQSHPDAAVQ

SMILES strings stand for the structures.

In the case of `CC(C)(C(N)=O)C(=O)NCCCNc1nc(Nc2cccc(NC(=O)CNC(=O)[C@H]3CCC(=O)O3)c2)ncc1Br`, the IC50 lay in the range of 0.01 to 0.1 µM.

Source of the values: patent publication US11542492B2 (Celgene CAR LLC, priority 2009, dated 2023).
